Reference: patent US8809619B2, “Knockout mice for a P450 gene cluster” (ITI Scotland Limited, priority 2007, dated 2014)

Conditions: C57BL/6J

## CO[C@H]1/C=C/O[C@@]2(C)Oc3c(C)c(O)c4c(O)c(c(/C=N/N5CCN(C)CC5)c(O)c4c3C2=O)NC(=O)/C(C)=C\C=C\[C@H](C)[C@H](O)[C@@H](C)[C@@H](O)[C@@H](C)[C@H](OC(C)=O)[C@@H]1C [rifampicin]
RIF 60 mg/kg 3 daily doses, +/- % SD
  Liver/Body weight ratio, % mean of corresponding strain control: (112 +/− 11) %
RIF 60 mg/kg IP 3 daily doses, mean +/- SD, n=4
  Liver/Body weight Ratio × 100: 5 +/− 0.5
